The text below walks through data of patent US6443945B1, “Laser assisted pharmaceutical delivery and fluid removal” (Transmedica International, Inc., priority 1993, dated 2002).

This data set can be described thus: Permeation of radiolabelled drugs through Er:YAG laser-irradiated human skin in Franz diffusion cells. The class given is in vitro ADME. As to conditions: single Er:YAG pulse, 2 mm, 254 mJ lidocaine, 285 mJ γ-interferon, 274 mJ insulin, 37° C.

As to Insulin, the “Permeability Constant, kp” value is 11.3 +/− 0.93 ×10^−3 cm/hr.
